{"sequences": {"note": "Sequences of proteins named here, by UniProt entry; tags and fusion partners are left off.", "UniProt P30550, whole entry, species assumed": "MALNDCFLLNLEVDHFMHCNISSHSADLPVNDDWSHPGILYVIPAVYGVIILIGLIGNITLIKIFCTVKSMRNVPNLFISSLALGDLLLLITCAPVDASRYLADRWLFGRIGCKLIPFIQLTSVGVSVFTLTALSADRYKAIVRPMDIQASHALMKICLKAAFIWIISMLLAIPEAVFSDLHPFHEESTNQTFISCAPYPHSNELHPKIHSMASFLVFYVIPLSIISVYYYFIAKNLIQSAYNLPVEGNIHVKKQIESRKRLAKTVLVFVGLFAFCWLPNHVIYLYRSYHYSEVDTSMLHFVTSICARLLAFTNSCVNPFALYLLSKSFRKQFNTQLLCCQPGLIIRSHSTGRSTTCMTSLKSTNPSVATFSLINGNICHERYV"}, "source": "patent US20060160157A1", "about": "“Method, compositions and classification for tumor diagnostics and treatment” (priority 2005, published 2006)", "origin": "cited, not measured here", "biological_target": "GRP-R (Homo sapiens, UniProt P30550)", "details": "radiolabeled bombesin as radioligand"}
{"substance": "gastrin releasing peptide [GRP]", "values": [{"measurement": "GRP-R binding selectivity (rank order of affinity)", "result": "GRP >bombesin> neuromedin"}]}
